# Compound activity deposited in PubChem by National Center for Advancing Translational Sciences (NCATS).
# Mito fusion yeast: mitochondrial division inhibition or fusion activation. 320,000 tested, 0.23% active. S. cerevisiae fusion-defective mutant growth rescue, CellTiterGlo 48 h. Potency, µM (highest dose often 46.1 µM), inactives show top-dose growth rescue (activation), hits mostly activators; also: potency is read from the fitted curve at half-maximal effect; % of control where 0% means no effect; nearly all actives have a fitted effect of over 45% in size
#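 Luminescent cell viability in 1536-well qHTS format served as the measure of rescued growth in ts fusion-mutant S. cerevisiae cultured on non-fermentable YPEG for 48 hours at 37C.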
# Nrf2 block: inhibitors of Nrf2 signaling | A549 ARE-Fluc reporter, luciferase luminescence, 18-24 h | Potency, µM (top dose mostly 46 µM), inactives show top-dose activity change, negative = inhibition, most hits filed as inhibitors | 360,000 tested, 2.1% active | AID 504444; also: potency is read from the fitted curve at half-maximal effect; % is scaled to controls: 0 for no effect and ±100 for the full control effect; nearly all actives have a fitted effect of over 60% in size
#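 Concentration-response testing used A549 ARE_Fluc cells at 5000 cells/well. Following an 18-24 h compound incubation, viability was read by fluorescence (Ex 405/Em 525) and luciferase output by luminescence.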
# A549 tox-1: A549 cytotoxicity, counter-screen for Nrf2 inhibitors | A549 ARE-Fluc cells, CellTiter-Fluor viability, 18-24 h | Potency, µM (top dose mostly 46 µM), for the others: at the top dose activity change, negative = cytotoxicity, most hits filed as inhibitors | 390,000 tested, 0.16% active | AID 504648; also: potency is read from the fitted curve at half-maximal effect; % is scaled to controls: 0 for no effect and ±100 for the full control effect
#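 A549 ARE-Fluc cells in 5% FBS OPTI-MEM, 5000 cells/well, rested 2 h then exposed to compounds in concentration-response for 18-24 h at 37 °C. Viability by CellTiter-Fluor fluorescence (Ex 405/Em 525) after 30 min; luciferase luminescence (BugLite, 15 min, RT) read afterwards.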
# Nrf2 activator: Nrf2 pathway activation. AREc32 ARE-luciferase reporter (MCF7-derived line), luminescence, 24 h. Potency, µM (series often up to 46.1 µM), for the others: at the top dose activation, usual class: activators. 410,000 tested, 0.31% active. AID 624171; also: potency is read from the fitted curve at half-maximal effect; % of control where 0% means no effect; nearly all actives have a fitted effect of over 65% in size
#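 Nrf2 activation is followed as ARE-luciferase induction in the AREc32 line after one day of compound treatment; luminescence is read with Steady-Glo.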
# Glioma ERSR ind: induces the endoplasmic reticulum stress response in human glioma cells; U87-MG GRP78 promoter luciferase reporter, 16 h; Potency, µM, for inactives: top-dose activation, actives largely listed as activators; 420,000 tested, 0.02% active; also: potency is read from the fitted curve at half-maximal effect; series mostly up to about 76 µM; % of control where 0% means no effect; nearly all actives have a fitted effect of over 35% in size
#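 ERSR induction read as luciferase luminescence (Bright-Glo, 10 min at room temperature) in stably transfected human U87-MG glioma cells exposed to compounds for 16 h, using GRP78 as sensor.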
# miR-21 reporter: miR-21 reporter, rising signal; HeLa miR-21 FLuc reporter, luciferase, 48 h; Potency, µM (highest dose often 38.3 µM), for the others: top-dose reporter change, positive = more light; 340,000 tested, under 10 active; AID 2288; active = well fitted rising curve with a large enough effect; inconclusive = small, poorly fitted or top-dose-only effect; inactive = no such curve, though single readings can be large or run the other way;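 further: % of control where 0% means no effect; miR-21 action dims this reporter so a rising signal means less miR-21 action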
#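 HeLa cells stably expressing CMV-driven firefly luciferase with a downstream miR-21 binding sequence, endogenously expressing miR-21, were treated with titrations (up to about 40uM final) for 48 hours at 37 degree Celsius. Luciferase luminescence was read after lysis.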
# FLuc counter 3: firefly luciferase inhibition, Nrf2 hit validation; shares compounds with Nrf2 block; purified firefly luciferase, luminescence inhibition; Potency, µM (titrated, usually from 57.5 µM), inactives show at the highest dose activity change, negative = inhibition, usual class: inhibitors; 1,400 tested, 4% active; AID 720522; also: potency is read from the fitted curve at half-maximal effect; % is scaled to controls: 0 for no effect and ±100 for the full control effect; nearly all actives have a fitted effect of over 65% in size
# A549 tox-2: counter-screen for Nrf2 inhibitors: cytotoxicity in A549 ARE cells. 1,400 tested, 2% active. A549 ARE-Fluc cells, cytotoxicity counterscreen. Potency, µM (highest dose often 46.1 µM), for inactives: top-dose activity change, negative = cytotoxicity, usual class: inhibitors. shares compounds with Nrf2 block;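 also: potency is read from the fitted curve at half-maximal effect; cells exposed to compounds for 18 to 24 hours; % is scaled to controls: 0 for no effect and ±100 for the full control effect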
# ARE-Fluc inh: reduces Nrf2 ARE reporter signal in A549 cells; shares compounds with Nrf2 block; A549 ARE-firefly luciferase reporter, luminescence; Potency, µM (highest dose often 46.1 µM), without a hit: at the highest dose activity change, negative = inhibition, most hits filed as inhibitors; 1,400 tested, 74% active; AID 720524; also: potency is read from the fitted curve at half-maximal effect; % is scaled to controls: 0 for no effect and ±100 for the full control effect; nearly all actives have a fitted effect of over 65% in size
# An asterisk follows results filed as active; ? = inconclusive; / = no result. A selection: hits, their analogues and other compounds. The true share with any hit is near 2.3%. Calls follow the shape of the dose curve; as a rule, active = well fitted curve in the direction sought with a large enough effect; inconclusive = small, poorly fitted or top-dose-only effect, or another doubt; inactive = no such curve, though single readings can be large; an effect the other way counts as inactive or inconclusive.
(1) C[C@]12CCC(=O)C=C1C=CC1C2CC[C@@]2(C)C1CC[C@@H]2O (stereo not given in full)
(2) O=C(NCc1cccnc1)C(Cl)(Cl)Cl
(3) CN(C)c1ccc(C(=O)N/N=C/C23CC[C@@H](O)CC2(O)CC[C@@H]2[C@@H]3CCC3(C)C(C4=CC(=O)OC4)CCC23O)cc1 (stereo not given in full)
(4) CC12CC[C@H]3[C@@H](CCC4(O)C[C@H](O)CCC34/C=N/NC(=O)c3ccccc3F)C1(O)CCC2C1=CC(=O)OC1 (stereo not given in full)
(5) CC12CC[C@H]3[C@@H](CCC4(O)C[C@H](O)CCC34/C=N/NC(=O)c3ccc(O)cc3)C1(O)CCC2C1=CC(=O)OC1 (stereo not given in full)
(6) CC12CC[C@H]3[C@@H](CCC4(O)C[C@H](O)CCC34/C=N/NC(=O)c3ccccc3O)C1(O)CCC2C1=CC(=O)OC1 (stereo not given in full)

assay / compound	1	2	3	4	5	6
Mito fusion yeast	/	-2.5%	-2.8%	2.9%	-1.7%	1.3%
Nrf2 block	-12.4%	-10.2%	5.8µM*	9.2µM*	-29.6%	?
A549 tox-1	3.3%	2.1%	?	-24.5%	-12.0%	-0.9%
Nrf2 activator	-0.2%	0.2%	-4.6%	3.7%	0.2%	0.5%
Glioma ERSR ind	-3.4%	-2.6%	-7.9%	2.9%	-4.7%	-0.8%
miR-21 reporter	/	-5.2%	?	27.2%	-13.5%	26.0%
FLuc counter 3	/	/	1.1%	-10.2%	/	/
A549 tox-2	/	/	?	?	/	/
ARE-Fluc inh	/	/	3.66µM*	11.6µM*	/	/

# Record cards (already shown).
# C[C@]12CCC(=O)C=C1C=CC1C2CC[C@@]2(C)C1CC[C@@H]2O (stereo not given in full) as listed: Mito fusion yeast = /; Nrf2 block = -12.4%; A549 tox-1 = 3.3%; Nrf2 activator = -0.2%; Glioma ERSR ind = -3.4%; miR-21 reporter = /; FLuc counter 3 = /; A549 tox-2 = /; ARE-Fluc inh = /
# CC12CC[C@H]3[C@@H](CCC4(O)C[C@H](O)CCC34/C=N/NC(=O)c3ccccc3F)C1(O)CCC2C1=CC(=O)OC1 (stereo not given in full) as listed: Mito fusion yeast = 2.9%; Nrf2 block = 9.2µM*; A549 tox-1 = -24.5%; Nrf2 activator = 3.7%; Glioma ERSR ind = 2.9%; miR-21 reporter = 27.2%; FLuc counter 3 = -10.2%; A549 tox-2 = ?; ARE-Fluc inh = 11.6µM*
